Values of other authors in PMC9182007, “Statistical Methods in the Study of Protein Binding and Its Relationship to Drug Bioavailability in Breast Milk” (Molecules, 2022).

Conditions: Table S6, external group (n = 38); cited from earlier work

## gentamycin
  M/P: 0.36
